AlphaSeq binding of Ab-95 light chain variants to a spike HR2 peptide

Source: Engelhart et al. 2022 (doi:10.1038/s41597-022-01779-4), MIT Lincoln Laboratory and A-Alpha Bio; data file from the FLAb repository.

The target is the same throughout: PDVDLGDISGINAS, from the HR2 region of SARS-CoV-2 spike.

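AAYL52 was designed without a model: most single CDR substitutions and a random sample of double and triple ones. The assay is AlphaSeq: two haploid yeast populations carry antibody and antigen on their surface. After mating in shaken culture at 30 °C for 16 h, diploids were selected and their barcode pairs sequenced. Read counts were normalised to the haploid input and turned into Kd by a linear fit to BCL2-family pairs of known affinity, for each replicate. There are three technical replicates.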

Each scFv is VH, the linker GGGGSGGGGSGGGGS, VL, as in the parent Ab-95, and differs from it in the CDRs of the light chain only.
VH: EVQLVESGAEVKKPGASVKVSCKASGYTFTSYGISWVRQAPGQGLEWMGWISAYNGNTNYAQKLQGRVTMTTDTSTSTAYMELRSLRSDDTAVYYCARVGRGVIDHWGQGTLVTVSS
VL: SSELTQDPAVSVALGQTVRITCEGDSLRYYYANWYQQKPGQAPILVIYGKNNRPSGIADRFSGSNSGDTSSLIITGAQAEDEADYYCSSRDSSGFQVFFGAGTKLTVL

Substitutions are numbered in sequence along the VL above, starting at 1 (not Kabat). Scale: log10 of Kd in nM, estimated from mating counts; low values are strong binders. Replicates are averaged; those with no signal do not enter the mean. "nd" marks a missing value. The strain was present, yet no cells mated with the target were sequenced in that replicate, which points to weak or no binding.

changes	log10 Kd (nM) by replicate	mean log10 Kd (nM)
P54R/Q96L/F98I	3.00 / nd / nd	3.00
G49D/S88C/R90K	4.50 / nd / nd	4.50
R28N/Y30E/G49C	4.21 / 3.76 / nd	3.99
E23K/G24E/Y31L	2.60 / 2.60 / 2.68	2.63
Y29Q/S88R/S92K	nd / nd / nd	nd
Y30W/Y31W/S93T	2.81 / 3.56 / 2.66	3.01
S55Y/S92V	1.62 / 1.75 / 1.27	1.55
L27G/N51M	nd / nd / 2.80	2.80
S26C/G49W	nd / nd / nd	nd
G49C/N51E/D91C	3.83 / nd / nd	3.83
E23T/G24R/N33C	4.19 / nd / nd	4.19
R53F/S93R/F95N	nd / nd / nd	nd
N51E/S89F	3.73 / 4.68 / nd	4.21
D91S/V97G/F98C	3.42 / 3.01 / nd	3.21
R28T/R53N/S89T	2.90 / 3.72 / 2.70	3.10
G24R/D25F/S55Q	3.50 / 5.72 / nd	4.61
G24E/G94N	4.46 / 5.04 / nd	4.75

Second part, the sequence after the result:

log10 Kd (nM) by replicate	mean log10 Kd (nM)	changes
4.28 / 3.51 / nd	3.90	E23I/L27Y/S88R
4.22 / nd / nd	4.22	S93K/F95L/F98D
3.17 / 3.05 / 3.10	3.11	S93I/Q96N
nd / 4.24 / nd	4.24	L27V/A32E/F95E
5.26 / nd / nd	5.26	E23C/N33G/P54M
3.58 / 5.89 / nd	4.74	Y29N/G49T/R53H
4.47 / 4.93 / 3.63	4.34	G49H/R90L/G94D
nd / 3.53 / nd	3.53	N33T/R90H/S92F
2.85 / nd / 2.67	2.76	D25E/Y31D/R90V
nd / 3.18 / 3.30	3.24	E23I/S26H/N52R
3.80 / nd / nd	3.80	G24R/A32V/N33S
4.06 / 4.78 / 3.67	4.17	G49I/N51H/R53L
3.96 / nd / nd	3.96	S26D/Y31A/S89Y
3.64 / 3.41 / 2.87	3.31	K50I/P54G/S92Y
nd / nd / nd	nd	Y31S/D91Y/G94A
5.30 / 5.71 / 4.25	5.09	R28G/Y30I/S88V
4.05 / 3.34 / 4.61	4.00	N52P/D91Y/Q96V

Picked from the list: the 3 lowest averages where every replicate gave a value.

| changes | log10 Kd (nM) by replicate | mean log10 Kd (nM) |
|---|---|---|
| S55Y/S92V | 1.62 / 1.75 / 1.27 | 1.55 |
| E23K/G24E/Y31L | 2.60 / 2.60 / 2.68 | 2.63 |
| Y30W/Y31W/S93T | 2.81 / 3.56 / 2.66 | 3.01 |

In this assay the parent's reference entry averaged 2.31; its copy inside this library read 2.25. Nonspecific signal, from three strains lacking the peptide, appeared in 28% of pairings of library AAYL52, centred on 3.91 (5% of these signals below 2.90); values are not corrected for it.